The series in a line: Solubility (qualitative remark). The settings on record: relative to parent indirubins / 3′-oximes.

On to 6′-Bromo-indirubin-3′-oxime [13a], for which the “solubility (in words)” value was “increased solubility”.
